Legend:
MAIT cells = assay: Detection of MAIT cells in mice using MR1-tetramers; settings: uninfected C57BL/6 mice
Source text: FIG. 16 is a schematic showing detection of MAIT cells in mice using MR1-tetramers. Representative plots showing MAIT cell percentages among TCRβ^+ lymphocytes in a range of organs from uninfected C57BL/6 and MR1^−/− mice. MAIT cells are defined here as TCRβ^+Tetramer^+ cells. “MR1-Tetramer”=mouse MR1-5-OP-RU tetramers. Numbers represent MAIT cells as a percentage of TCRβ^+ lymphocytes.

[1] = tested on: human MAIT cells present in PBMCs; assay: Tetramer staining of human PBMCs; format: cell-based; settings: tetramers at 1.4 μg/ml
Procedure: For co-staining with wild-type and K43A-MR1 tetramers, approximately 5×10^5 human PBMCs were stained with K43A-MR1-5-OP-RU-PE tetramer at 20 μg/ml for 40 minutes at room temperature in the dark. Cells were then washed and stained with w.t. MR1-5-OP-RU-BV tetramer at 1.4 μg/ml, CD3-AlexaFluor700 (EBioscience), CD161-PE-Cy7 (Biolegend), CD4-APC-Cy7 (Biolegend) and CD8α-PerCp-Cy5.5 (BD) for 30 minutes at 4° C. Cells were then washed once with 2 ml of FACS wash (2% fetal bovine serum in PBS) and resuspended in 150 μl of FACS fix (2% glucose and 1% paraformaldehyde in PBS) prior to acquisition of data on a BD LSR-Fortessa. Data were analyzed using FlowJo analysis software (Tree Star, Ashland, Oreg.).
For single staining with either MR1-5-OP-RU or MR1-5-OE-RU tetramers, human PBMCs were stained as above with w.t. MR1-5-OP-RU-PE or w.t. MR1-5-OE-RU-PE tetramers at 1.4 ug/ml, and CD3-AlexaFluor700 (EBioscience), CD161-PE-Cy7 (Biolegend), CD4-APC-Cy7 (Biolegend) and CD8α-PerCp-Cy5.5 (BD) for 30 minutes at 4° C., prior to acquisition of data on a BD LSR-Fortessa.

| Substance | detection of MAIT cells in organs (MAIT cells) | staining of human MAIT cells [1] |
| --- | --- | --- |
| MR1-5-OP-RU tetramers: mouse MR1-5-OP-RU tetramers used to detect MAIT cells in mice | can be used to detect MAIT cells in many organs of wt mice | – |
| MR1-5-OE-RU: human MR1 refolded with 5-A-RU and glyoxal, biotinylated and tetramerized with streptavidin | – | efficiently stained all human MAIT cells present in PBMCs |
| MR1-5-OP-RU: human MR1 refolded with 5-A-RU and methylglyoxal, biotinylated and tetramerized with streptavidin | – | efficiently stained all human MAIT cells present in PBMCs |

Source: US10245262B2, “Immunological reagents and uses therefor” (THE UNIVERSITY OF QUEENSLAND, priority 2014, dated 2019)
